# Measured values taken from US12655106B2 (Eikonizo Therapeutics, Inc., priority 2021, dated 2026).
# The chains behind the UniProt entries cited, without tags or fusion partners.
# UniProt Q9UBN7, whole entry: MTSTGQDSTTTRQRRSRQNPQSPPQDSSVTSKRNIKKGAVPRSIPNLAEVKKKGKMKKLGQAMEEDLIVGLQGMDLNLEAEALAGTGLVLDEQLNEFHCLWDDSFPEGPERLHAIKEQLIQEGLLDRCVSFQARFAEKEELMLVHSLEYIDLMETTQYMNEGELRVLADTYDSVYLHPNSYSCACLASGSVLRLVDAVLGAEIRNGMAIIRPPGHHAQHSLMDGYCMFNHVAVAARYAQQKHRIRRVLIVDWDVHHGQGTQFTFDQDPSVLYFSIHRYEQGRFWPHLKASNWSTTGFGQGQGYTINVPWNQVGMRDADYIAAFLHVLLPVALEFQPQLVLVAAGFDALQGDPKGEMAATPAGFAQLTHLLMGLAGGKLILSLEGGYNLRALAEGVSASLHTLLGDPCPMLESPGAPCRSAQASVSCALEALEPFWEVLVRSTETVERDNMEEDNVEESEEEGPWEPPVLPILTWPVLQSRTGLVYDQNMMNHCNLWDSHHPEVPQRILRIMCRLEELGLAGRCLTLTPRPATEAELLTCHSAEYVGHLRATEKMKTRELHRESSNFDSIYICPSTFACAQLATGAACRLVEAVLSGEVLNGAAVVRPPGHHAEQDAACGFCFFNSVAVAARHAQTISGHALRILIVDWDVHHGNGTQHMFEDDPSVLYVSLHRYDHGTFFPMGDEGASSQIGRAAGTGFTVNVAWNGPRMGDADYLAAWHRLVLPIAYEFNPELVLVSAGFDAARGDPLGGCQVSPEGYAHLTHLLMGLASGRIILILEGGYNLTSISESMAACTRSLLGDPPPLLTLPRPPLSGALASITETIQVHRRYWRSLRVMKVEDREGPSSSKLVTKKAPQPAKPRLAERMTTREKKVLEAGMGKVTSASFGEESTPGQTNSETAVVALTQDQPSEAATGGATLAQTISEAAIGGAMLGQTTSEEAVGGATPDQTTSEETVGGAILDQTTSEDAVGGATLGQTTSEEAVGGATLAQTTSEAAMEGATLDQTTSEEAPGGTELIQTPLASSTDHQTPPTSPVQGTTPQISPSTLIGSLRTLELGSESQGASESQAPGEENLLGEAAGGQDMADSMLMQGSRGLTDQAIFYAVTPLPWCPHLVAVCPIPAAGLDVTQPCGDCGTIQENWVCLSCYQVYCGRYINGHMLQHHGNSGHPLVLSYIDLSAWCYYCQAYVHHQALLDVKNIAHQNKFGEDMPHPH
# Target: Full length Human HDAC6 (Homo sapiens, UniProt Q9UBN7)
# Test: Caliper endpoint assay for HDAC enzymatic activity (HDAC6)
# Assay type: biochemical
# Settings: ratio of HDAC8 IC50/HDAC6 IC50
smiles,measurement,value
CN1Cc2ccc(C(=O)NO)cc2CN1Cc1ccccc1,Selectivity (6 v 8),II (II: >1-10)
